## Ab-14 light chain CDR variants: yeast mating affinities

Reference: Engelhart et al. 2022, doi:10.1038/s41597-022-01779-4. File: FLAb, binding data.

Target peptide (SARS-CoV-2 spike, HR2 region): PDVDLGDISGINAS

Parent: Ab-14, a human scFv built as VH, a (GGGGS)3 linker, VL. Only the CDRs of the light chain vary.
VH: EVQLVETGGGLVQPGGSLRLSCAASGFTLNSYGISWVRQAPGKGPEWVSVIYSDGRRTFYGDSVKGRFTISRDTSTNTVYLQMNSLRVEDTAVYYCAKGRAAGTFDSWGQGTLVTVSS
VL: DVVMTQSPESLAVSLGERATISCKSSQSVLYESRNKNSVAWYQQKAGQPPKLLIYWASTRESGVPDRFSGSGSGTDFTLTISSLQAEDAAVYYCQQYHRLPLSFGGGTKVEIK

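Phage display of a naive human antibody library on the peptide gave the parent. The library (AAYL50) carries one to three amino acid substitutions per variant, with no insertions or deletions. In AlphaSeq, yeast of one mating type display the scFv and yeast of the other type display the target. Pairs that bind mate more often; barcode pairs of the diploids are counted by sequencing. A regression on co-assayed BCL2-family reference pairs converts the normalised counts of each replicate to an apparent Kd. There are three technical replicates.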

Positions count from residue 1 of the parent VL; L30Y puts Y in place of L.
Numbers give log10(Kd / nM), so 0 is 1 nM and 3 is 1 µM. Smaller is tighter.
The mean shown is taken over the replicates in which the pair was detected.
Where no diploid with the target was found in that replicate, the entry reads "n.d.": below detection, most likely a poor binder, though not proof of it.
Parent in this assay: reference entry 0.65, copy in this library 1.68.
Nonspecific signal, from three strains lacking the peptide, appeared in 18% of pairings of library AAYL50, centred on 4.19 (5% of these signals below 2.99); values are not corrected for it.

| log10 Kd, replicates | mean log10 Kd (nM) | changes |
|---|---|---|
| 1.46 / 1.71 / 1.66 | 1.61 | L30Y+Y31N+A57Q |
| 2.83 / 2.14 / 2.68 | 2.55 | T59E+E61K+S62Y |
| 0.42 / 0.64 / 0.52 | 0.53 | S26N+S28D+V29G |
| 1.13 / 1.32 / 1.24 | 1.23 | R34C+Q95T |
| 3.21 / 2.55 / 4.72 | 3.49 | R34F+Q96W+S103I |
| n.d. / n.d. / 4.94 | 4.94 | L30C+K36L+L100M |
| n.d. / n.d. / n.d. | n.d. | S38F+E61R+S103F |
| 2.22 / 2.20 / 2.89 | 2.44 | E61L+S62Y+Q96T |
| 1.26 / 1.56 / 1.56 | 1.46 | N37Q+A57T |
| 2.32 / 2.12 / 2.67 | 2.37 | Y31C+N35G+L102I |
| n.d. / n.d. / n.d. | n.d. | K24G+K36S+V39P |
| 0.37 / 0.62 / 0.61 | 0.53 | V29D+H98R+R99I |
| 1.54 / 1.95 / 1.82 | 1.77 | Q27S+T59R+R99T |
| 3.07 / 2.52 / 4.22 | 3.27 | N35L+S58Q+Q95I |
| n.d. / n.d. / n.d. | n.d. | N37C+L100W+L102Y |
| 1.10 / 1.17 / 1.17 | 1.15 | S26L+Q27D+E32Q |
| n.d. / n.d. / n.d. | n.d. | E32Q+E61H+L100A |
| n.d. / n.d. / 5.10 | 5.10 | K36C+A40H+S103G |
| 5.54 / n.d. / n.d. | 5.54 | S28R+V39F+L100W |
| n.d. / n.d. / n.d. | n.d. | K24Y+Y97E |
| 5.93 / n.d. / n.d. | 5.93 | L30W+E32A+R99Y |
| 2.28 / 2.10 / 2.98 | 2.45 | S33Q+S58R |
| n.d. / n.d. / n.d. | n.d. | S25D+K36E+A57Y |
| 4.62 / 4.23 / n.d. | 4.42 | A40G+S58Y |
| 3.42 / 3.57 / 3.80 | 3.60 | S25M+K36M+V39G |
| n.d. / n.d. / n.d. | n.d. | S33P+N37P+S103W |
| 0.43 / 0.70 / 0.47 | 0.53 | S25Y+S28E+N35L |
| n.d. / 4.70 / 5.03 | 4.86 | V39K+P101Y |
| n.d. / n.d. / n.d. | n.d. | Y31K+T59W+L100W |
| 2.34 / 2.23 / 2.08 | 2.22 | V29N+L30H+W56F |
| n.d. / 2.93 / n.d. | 2.93 | K24F+L30P+S58F |
| 4.40 / 3.07 / 3.23 | 3.57 | Q27H+L30K+S33R |

Excerpt, the first 2 entries:

| changes | log10 Kd, replicates | mean log10 Kd (nM) |
|---|---|---|
| L30Y+Y31N+A57Q | 1.46 / 1.71 / 1.66 | 1.61 |
| T59E+E61K+S62Y | 2.83 / 2.14 / 2.68 | 2.55 |